In patent US12219958B2, “Glufosinate additive for improved weed control” (THE BOARD OF TRUSTEES OF THE UNIVERSITY OF ARKANSAS, priority 2019, dated 2025):

Tests used:
[1] = test system: native mixture of Palmer amaranth and waterhemp; assay: Field experiment, visual Palmer amaranth/waterhemp control (Example 2, FIG. 5); type: in vivo, Amaranthus palmeri, Amaranthus tuberculatus
[2] = test system: native large crabgrass populations; assay: Field experiment, large crabgrass control (Examples 2 and 3, FIG. 6); type: in vivo
[3] = test system: Palmer amaranth; assay: Field experiment, Palmer amaranth control with glufosinate + additive at 10 pm (Example 5, FIG. 11); type: in vivo, Amaranthus palmeri; conditions: low-light conditions (10 pm); glufosinate 655 g ai/ha + additive 280 g ai/ha; 25 to 30-cm tall Palmer amaranth
[4] = test system: johnsongrass; assay: Field experiment, johnsongrass control with glufosinate + additive at 10 pm (Example 5, FIG. 12); type: in vivo; conditions: low-light conditions (10 pm); glufosinate 655 g ai/ha + additive 280 g ai/ha; 15 to 20-cm tall johnsongrass
[5] = test system: Enlist cotton, XtendFlex cotton, LibertyLink GT27 soybean, and LibertyLink corn; conditions: 10 pm; glufosinate 655 g ai/ha + additive 280 g ai/ha
[6] = test system: native Virginia buttonweed population; assay: Field experiment, Virginia buttonweed control (Examples 2 and 3, FIG. 7); conditions: NBD-CL 269 g ai/ha + NIS 0.25% v/v without glufosinate; 10 am, 10 pm; 20 days after application
[7] = low-light conditions (10 pm), glufosinate 655 g ai/ha + NBD-CL 269 g ai/ha + NIS 0.25% v/v

SMILES: O=[N+]([O-])c1ccc(Cl)c2nonc12
- herbicidal activity on its own ([1]; NBD-CL 269 g ai/ha + NIS 0.25% v/v without glufosinate, 10 am, 10 pm, 21 days after application): does not have herbicidal activity
- Palmer amaranth and waterhemp control with glufosinate+NIS on addition of the additive [1, 7]: increased
- herbicidal activity on its own ([2]; NBD-CL 269 g ai/ha + NIS 0.25% v/v without glufosinate, 10 am, 10 pm, 20 days after application): does not have herbicidal activity
- large crabgrass control with glufosinate+NIS on addition of the additive [2, 7]: increased
- increase in glufosinate efficacy of Palmer amaranth [3]: greatest increase
- increase in glufosinate efficacy of johnsongrass [4]: greatest increase
- crop response [5]: not eliciting a negative crop response
- herbicidal activity on its own [6]: does not have herbicidal activity
